Most compounds without a hit are left out; they make up all but 16% or so of the library.
TDP1 inh: blocks human tyrosyl-DNA phosphodiesterase 1. 350,000 tested, 0.28% active. recombinant TDP1, AlphaScreen DNA substrate cleavage. Potency, µM (series often up to 130 µM), inactives show at the highest dose activity change, negative = inhibition, most hits filed as inhibitors. Q9NUW8; further: potency means the concentration at half of the fitted maximal effect; on the % scale 0 is the no-effect control and ±100 the full control effect; nearly all actives have a fitted effect of over 40% in size
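Here, a 5' biotin and 3' phosphotyrosine-FITC DNA oligonucleotide reports Tdp1 activity: intact substrate bridges AlphaScreen beads, while cleavage leaves a 3' phosphate and drops signal. All incubations at room temperature.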
miR-21 reporter: miR-21 reporter, rising signal; Potency, µM (doses to about 38.3 µM), without a hit: at the top dose reporter change, positive = more light; HeLa miR-21 FLuc reporter, luciferase, 48 h; 340,000 tested, under 10 active; active = well fitted rising curve with a large enough effect; inconclusive = small, poorly fitted or top-dose-only effect; inactive = no such curve, though single readings can be large or run the other way;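 further: % of control where 0% means no effect; miR-21 action dims this reporter so a rising signal means less miR-21 action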
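Luminescence from a firefly luciferase reporter carrying a miR-21 binding site downstream, stably expressed under a CMV promoter in HeLa cells that make miR-21 endogenously, reports miRNA modulation after 48 h compound exposure up to approximately 40uM final.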
DT40 TDP1 CPT: DT40-hTDP1 cell growth loss with CPT | chicken DT40 Tdp1-/-;hTDP1 cells + 20 nM CPT, ATP luminescence, 48 h | 420,000 tested, 12% active | Potency, µM (doses to about 46.2 µM), for the others: at the highest dose activity change, negative = growth inhibition, most hits filed as inhibitors; further: potency means the concentration at half of the fitted maximal effect; on the % scale 0 is the no-effect control and ±100 the full control effect; nearly all actives have a fitted effect of over 55% in size
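Cell growth measured by CellTiter-Glo luminescence after a minimum 48 h, 37 C compound exposure with 20 nM CPT in Tdp1-knockout DT40 cells stably expressing hTDP1, seeded 400/well; qHTS titration format.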
uPA surface inh: blocks generation of uPA at the cell surface; cell surface uPA generation assay, qHTS; Potency, µM (highest dose often 38.3 µM), for inactives: at the highest dose activity change, negative = inhibition, actives largely listed as inhibitors; 330,000 tested, 0.31% active; AID 540303; active means well fitted inhibition curve with a large enough effect; inconclusive means small, poorly fitted or top-dose-only effect; inactive means no such curve, though single readings can be large or run the other way; tested in mouse RAW 264.7 cells; further: potency means the concentration at half of the fitted maximal effect; on the % scale 0 is the no-effect control and ±100 the full control effect; nearly all actives have a fitted effect of over 55% in size
DT40 TDP1 no CPT: qHTS for Inhibitors of human tyrosyl-DNA phosphodiesterase 1 (TDP1): qHTS in cells in absence of CPT. DT40 Tdp1-/- hTDP1 cells, no CPT, ATP luminescence, 48 h. Potency, µM (top dose mostly 46.2 µM), inactives show at the top dose activity change, negative = growth inhibition, most hits filed as inhibitors. 420,000 tested, 15% active. AID 686978, 2013; further: potency means the concentration at half of the fitted maximal effect; on the % scale 0 is the no-effect control and ±100 the full control effect; nearly all actives have a fitted effect of over 55% in size
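Stably hTDP1-transfected Tdp1-null chicken DT40 cells were treated with library compounds minus camptothecin and grown for at least 48 hr at 37 °C, after which cellular ATP was quantified by luminescence.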
* marks the source's active call; other numbers are inactive results; ? = inconclusive; . = no result given. Unless noted, the call rests on the fitted dose curve; in most records, active means well fitted curve in the direction sought with a large enough effect; inconclusive means small, poorly fitted or top-dose-only effect, or another doubt; inactive means no such curve, though single readings can be large; an effect the other way counts as inactive or inconclusive.

item	SMILES	TDP1 inh	miR-21 reporter	DT40 TDP1 CPT
1	O=C(Nc1ccc(Nc2ccccc2)cc1)c1c(F)c(F)c(F)c(F)c1F	.	6.5%	6.51µM*
2	O=C(Nc1ccccc1)c1c(F)cccc1F	5.9%	-14.6%	-3.2%
3	O=C(Nc1csc([N+](=O)[O-])c1)Nc1ccccc1Cl	.	23.6%	20.6µM*
4	CC(C)(C)c1ccc(NC(=O)c2c(F)cccc2Cl)cc1	-7.6%	-43.4%	10.3µM*
5	O=C(c1ccc(N2CCCS2(=O)=O)cc1)N1CCN(c2ccc(F)cc2)CC1	-2.9%	-2.1%	-43.0%
6	CCN=C1SC(C(=O)Nc2ccc(OCC)cc2)CC(=O)N1CC (stereo unspecified)	0.0%	-4.0%	?
7	O=C(Nc1ccccc1Cl)Nc1ccccc1Cl	-1.9%	-16.4%	-19.2%
8	O=C(Nc1ccc(Nc2ccccc2)cc1)Nc1ccccc1Cl	9.4%	-44.3%	18.4µM*

item	uPA surface inh	DT40 TDP1 no CPT
1	-7.2%	6.51µM*
2	-0.6%	-11.3%
3	-0.2%	23.1µM*
4	-11.1%	3.26µM*
5	1.5%	?
6	6.0%	-3.9%
7	-0.6%	?
8	-13.4%	7.31µM*

Further entries:
item	SMILES	TDP1 inh	miR-21 reporter	DT40 TDP1 CPT
9	O=C(NCCc1ccc2c(c1)OCCO2)c1ccc(F)cc1	1.4%	-15.8%	?
10	Cc1cccn2c(=O)c(/C=C(\C#N)C(N)=O)c(Oc3ccccc3)nc12	.	4.8%	?
11	Cc1cccn2c(=O)c(/C=C(\C#N)S(=O)(=O)c3ccccc3)c(Oc3ccc(Cl)cc3)nc12	1.8%	-1.6%	?
12	Cc1cc(Oc2nc3c(C)cccn3c(=O)c2/C=C(\C#N)S(=O)(=O)c2ccccc2)ccc1Cl	-3.0%	1.0%	13µM*
13	O=C1CCCN1CCCNCCCn1cnc2c(OCc3ccccc3)ncnc21	.	.	?
14	Cc1cc(C)cc(NC(=O)CNS(=O)(=O)c2ccc3nc(C)sc3c2)c1	-2.5%	-2.4%	-6.5%
15	O=C(CCl)N(C1CCCC1)C1CCS(=O)(=O)C1 (stereo unspecified)	5.4%	?	18.4µM*
16	CCOC(=O)c1c(S(=O)(=O)N2CCC(C(=O)Nc3ccc(C)c(Cl)c3)CC2)c(C)n(C)c1C	0.5%	0.2%	-21.7%

item	uPA surface inh	DT40 TDP1 no CPT
9	-6.3%	?
10	8.7%	?
11	-7.4%	18.4µM*
12	-7.1%	?
13	19.7%	0.4%
14	.	-12.8%
15	-3.6%	14.6µM*
16	.	-20.3%

Other compounds follow:
item	SMILES	TDP1 inh	miR-21 reporter	DT40 TDP1 CPT
17	CCC1Oc2ccc(C)cc2N(CC(=O)NCc2cccs2)C1=O (stereo unspecified)	-7.9%	-4.5%	-8.4%
18	Brc1ccccc1-n1nnc(-c2cnc3ccccc3c2)n1	.	.	?
19	COc1ccc(N2CCN(c3ncnc4sc(C(=O)NCC5CCCO5)c(C)c34)CC2)cc1 (stereo unspecified)	.	4.4%	?
20	CC(=O)N1CCN(C(=O)c2sc3ncnc(NCC4CCCO4)c3c2C)CC1 (stereo unspecified)	.	.	-14.2%
21	COc1ccccc1N1CCN(c2ncnc3sc(C(=O)NCC4CCCO4)c(C)c23)CC1 (stereo unspecified)	1.8%	9.2%	?
22	Cc1cc(Cl)ccc1-c1nc(NC(C)C)nc2ccsc12	.	.	18.4µM*
23	CC(=O)NCCNc1nc(NC(C)C)nc2ccsc12	.	.	5.2%
24	COc1cc(CCCN2C(=S)NC[C@@H]2CC2CCCCC2)cc(OC)c1OC	6.2%	6.4%	?

item	uPA surface inh	DT40 TDP1 no CPT
17	-1.3%	-25.0%
18	-15.0%	18.4µM*
19	6.4%	23.1µM*
20	.	-11.3%
21	6.4%	13µM*
22	.	23.1µM*
23	.	3.6%
24	-2.7%	?

New compounds follow.
item	SMILES	TDP1 inh	miR-21 reporter	DT40 TDP1 CPT
25	C/C(=N/Nc1cc(-c2ccccc2)nc(-c2ccccc2)n1)c1ccc(O)cc1	-5.7%	-28.3%	16.4µM*
26	C/C(=N\Nc1cc(-c2ccccc2)nc(-c2ccc(Br)cc2)n1)c1cccc(N)c1	.	.	25.9µM*
27	COc1ccc(Cl)cc1NC(=O)C(C)n1nnc2sc3c(c2c1=O)CCCC3 (stereo unspecified)	2.3%	4.2%	20.6µM*
28	Cc1ccc(NC(=O)C(C)n2nnc3sc4c(c3c2=O)CCCC4)cc1Cl (stereo unspecified)	0.0%	2.1%	?
29	S=C1SC2(CCCCCC2)NC2=C1CCCCC2	.	.	?
30	Cc1nnc2sc(SCC(=O)N3CCCCC3)nn2c1=O	4.3%	1.3%	1.3%
31	Cc1ccc(C(=O)Nc2cc(Cl)ccc2-n2cncn2)s1	.	.	2.0%
32	CC(C)(C)[C@@H]1COC(=O)[C@H](Cc2ccc(F)cc2)C/C=C\C[C@H](CC(=O)N(CCO)Cc2ccccc2)C(=O)N1	0.7%	.	13µM*

item	uPA surface inh	DT40 TDP1 no CPT
25	-21.0%	13µM*
26	1.3%	?
27	.	13µM*
28	.	14.6µM*
29	.	13µM*
30	3.5%	27.4%
31	-9.1%	-17.6%
32	?	20.6µM*

Carrying on:
item	SMILES	TDP1 inh	miR-21 reporter	DT40 TDP1 CPT
33	C[C@H]1COC(=O)[C@H](Cc2ccc(F)cc2)C/C=C\C[C@@H](CC(=O)N(CCO)Cc2ccccc2)C(=O)N1	0.3%	.	14.6µM*
34	CC(C)(C)OC(=O)C[C@@H]1C/C=C\C[C@@H](CC(=O)N(CCO)Cc2ccccc2)C(=O)NCCOC1=O	0.0%	.	-21.0%
35	C[C@@H]1COC(=O)[C@@H](CC(=O)OC(C)(C)C)C/C=C\C[C@@H](CC(=O)N(CCO)Cc2ccccc2)C(=O)N1	0.3%	.	-7.1%
36	O=C1NCCOC(=O)[C@@H](Cc2ccc(F)cc2)C/C=C\C[C@@H]1CC(=O)N(CCO)Cc1ccccc1	-0.4%	.	18.4µM*
37	C[C@@H]1COC(=O)[C@@H](Cc2ccc(F)cc2)C/C=C\C[C@@H](CC(=O)N(CCO)Cc2ccccc2)C(=O)N1	-0.4%	.	?
38	CC(=O)/C(C(=N)N1CCN(C(c2ccccc2)c2ccccc2)CC1)=C(\C)O	0.0%	-1.0%	-0.1%
39	CC1(C)CC(=O)C=C(c2ccc(COC(=O)Cc3ccccc3)cc2)C1=O	.	.	-13.1%
40	Cc1cccc(NC(=O)c2c([N+](=O)[O-])cnn2C)c1	.	-1.9%	-1.2%

item	uPA surface inh	DT40 TDP1 no CPT
33	7.3%	20.6µM*
34	19.4%	-21.2%
35	-2.4%	-22.4%
36	15.3%	20.6µM*
37	-0.5%	?
38	-3.5%	-9.8%
39	.	-16.0%
40	-12.5%	-4.2%

Continued.
item	SMILES	TDP1 inh	miR-21 reporter	DT40 TDP1 CPT
41	O=C(CSc1nc2nccnc2c(=O)n1CCc1c[nH]c2ccccc12)Nc1ccccc1	6.5%	0.3%	20.6µM*
42	Cc1ccccc1NC(=O)CSc1nc2nccnc2c(=O)n1CCc1c[nH]c2ccccc12	2.6%	-2.4%	23.1µM*
43	CC(C)OCCCn1c(SCC(=O)Nc2ccccc2C(F)(F)F)nc2nccnc2c1=O	1.6%	-3.5%	0.8%
44	CC(S)C(=O)NCC(=O)O (stereo unspecified)	.	.	?
45	COc1ccc(NC(=O)Nc2nc3c(s2)CCCC3)cc1	1.9%	-35.4%	?
46	O=C(Nc1cccc(Br)c1)Nc1nc2c(s1)CCCCCC2	5.3%	17.8%	7.31µM*
47	Cc1cc(C(=O)Nc2nc3c(s2)CCCC3)cs1	6.0%	11.5%	?
48	Cc1ccc(C(=O)Oc2cc(N)n(S(=O)(=O)c3ccc(C)cc3)n2)cc1	0.0%	-1.5%	-0.8%

item	uPA surface inh	DT40 TDP1 no CPT
41	.	14.6µM*
42	.	11.6µM*
43	-7.3%	7.7%
44	.	-2.2%
45	6.2%	23.1µM*
46	.	8.2µM*
47	.	?
48	-2.8%	19.1%

Among those listed so far, three have bromine:
item	SMILES	TDP1 inh	miR-21 reporter	DT40 TDP1 CPT
18	Brc1ccccc1-n1nnc(-c2cnc3ccccc3c2)n1	.	.	?
26	C/C(=N\Nc1cc(-c2ccccc2)nc(-c2ccc(Br)cc2)n1)c1cccc(N)c1	.	.	25.9µM*
46	O=C(Nc1cccc(Br)c1)Nc1nc2c(s1)CCCCCC2	5.3%	17.8%	7.31µM*

item	uPA surface inh	DT40 TDP1 no CPT
18	-15.0%	18.4µM*
26	1.3%	?
46	.	8.2µM*

Reformatted: entries from further up.
[46] O=C(Nc1cccc(Br)c1)Nc1nc2c(s1)CCCCCC2
[47] Cc1cc(C(=O)Nc2nc3c(s2)CCCC3)cs1

assay / compound | 46 | 47
TDP1 inh | 5.3% | 6.0%
miR-21 reporter | 17.8% | 11.5%
DT40 TDP1 CPT | 7.31µM* | ?
uPA surface inh | . | .
DT40 TDP1 no CPT | 8.2µM* | ?
